This assay has as its target Prostaglandin G/H synthase 1 (Homo sapiens, UniProt P23219). Nature of the assay: Inhibition of COX-1 in human OVCAR3 cells by cell-based assay. Set-up: species or system OVCAR-3. Put shortly: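 Intact human cancer cells, OVCAR3 (COX-1-expressing) or 1483 HNSCC (COX-2-expressing), incubated with test compounds in the presence of [1-14C]-arachidonic acid. COX-derived radiolabeled prostaglandin formation was read by TLC, and IC50 values were derived.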

Protein sequences, listed by entry. Tags and fused reporters are not part of them.
UniProt P23219, whole entry: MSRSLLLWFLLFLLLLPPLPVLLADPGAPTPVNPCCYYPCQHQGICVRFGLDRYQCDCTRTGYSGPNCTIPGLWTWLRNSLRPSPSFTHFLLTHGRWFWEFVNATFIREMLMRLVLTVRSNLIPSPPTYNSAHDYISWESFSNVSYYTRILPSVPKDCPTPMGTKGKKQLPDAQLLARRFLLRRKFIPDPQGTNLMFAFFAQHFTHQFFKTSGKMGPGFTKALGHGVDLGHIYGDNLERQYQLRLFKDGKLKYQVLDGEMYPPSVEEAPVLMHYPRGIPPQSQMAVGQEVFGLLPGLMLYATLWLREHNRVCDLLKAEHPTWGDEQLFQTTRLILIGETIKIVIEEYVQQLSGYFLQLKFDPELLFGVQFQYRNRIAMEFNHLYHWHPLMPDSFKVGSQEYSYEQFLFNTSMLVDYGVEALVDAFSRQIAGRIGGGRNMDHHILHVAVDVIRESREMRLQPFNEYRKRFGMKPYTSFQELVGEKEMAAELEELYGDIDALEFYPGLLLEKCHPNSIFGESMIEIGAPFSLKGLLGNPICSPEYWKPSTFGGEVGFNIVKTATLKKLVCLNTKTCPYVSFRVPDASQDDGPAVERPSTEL

One may read the IC50 as the concentration needed to halve the response being measured. A high value points to weaker potency in that assay. Regarding `COc1ccc(C2=C(c3cccc(F)c3)C(=O)OC2)cc1`, 180 nM corresponded to half-maximal inhibition (IC50).

For the origin of these results see ChEMBL document CHEMBL3351312, “Design of Fluorine-Containing 3,4-Diarylfuran-2(5H)-ones as Selective COX-1 Inhibitors” (ACS Med Chem Lett, 2014).
